Reference: patent US20120172392A1, “AMINE-BASED AND AMIDE-BASED INHIBITORS OF SEMICARBAZIDE-SENSITIVE AMINE OXIDASE (SSAO) ENZYME ACTIVITY AND VAP-1 MEDIATED ADHESION USEFUL FOR TREATMENT OF DISEASES” (priority 2004, published 2012)

Sequences of proteins named here, by UniProt entry; tags and fusion partners are left off.
UniProt O08590, whole entry: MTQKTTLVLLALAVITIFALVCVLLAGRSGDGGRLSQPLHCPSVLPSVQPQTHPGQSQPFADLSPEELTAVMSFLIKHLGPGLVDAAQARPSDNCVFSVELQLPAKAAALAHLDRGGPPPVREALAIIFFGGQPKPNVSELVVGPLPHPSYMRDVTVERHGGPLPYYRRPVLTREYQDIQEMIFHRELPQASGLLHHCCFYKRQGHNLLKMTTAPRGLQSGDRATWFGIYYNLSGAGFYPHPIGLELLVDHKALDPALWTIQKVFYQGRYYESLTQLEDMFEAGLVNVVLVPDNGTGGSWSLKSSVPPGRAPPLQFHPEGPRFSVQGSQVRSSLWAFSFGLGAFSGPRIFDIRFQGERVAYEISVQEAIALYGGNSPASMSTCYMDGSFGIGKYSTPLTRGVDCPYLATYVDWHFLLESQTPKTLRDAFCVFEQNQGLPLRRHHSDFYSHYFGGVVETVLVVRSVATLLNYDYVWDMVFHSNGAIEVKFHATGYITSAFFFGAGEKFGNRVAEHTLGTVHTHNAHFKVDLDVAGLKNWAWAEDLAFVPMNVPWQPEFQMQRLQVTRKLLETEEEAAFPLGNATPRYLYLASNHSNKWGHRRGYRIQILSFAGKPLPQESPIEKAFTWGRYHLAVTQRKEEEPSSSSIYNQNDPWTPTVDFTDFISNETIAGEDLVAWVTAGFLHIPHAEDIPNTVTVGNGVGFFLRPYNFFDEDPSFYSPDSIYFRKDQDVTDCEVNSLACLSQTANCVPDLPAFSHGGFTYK
UniProt P21397, whole entry: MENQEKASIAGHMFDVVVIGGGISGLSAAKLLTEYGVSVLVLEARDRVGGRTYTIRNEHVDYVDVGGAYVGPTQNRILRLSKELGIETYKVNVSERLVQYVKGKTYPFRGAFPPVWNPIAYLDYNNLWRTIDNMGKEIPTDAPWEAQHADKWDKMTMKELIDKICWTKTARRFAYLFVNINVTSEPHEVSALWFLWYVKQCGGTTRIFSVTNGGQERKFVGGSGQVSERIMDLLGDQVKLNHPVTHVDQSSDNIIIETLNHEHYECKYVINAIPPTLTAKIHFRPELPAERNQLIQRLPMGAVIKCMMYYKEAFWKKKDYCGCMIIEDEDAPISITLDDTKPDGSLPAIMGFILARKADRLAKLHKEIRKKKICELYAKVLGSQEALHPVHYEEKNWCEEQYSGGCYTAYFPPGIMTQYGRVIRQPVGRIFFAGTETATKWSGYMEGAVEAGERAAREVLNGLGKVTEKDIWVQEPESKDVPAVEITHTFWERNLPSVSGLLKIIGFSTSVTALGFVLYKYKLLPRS
UniProt P27338, whole entry: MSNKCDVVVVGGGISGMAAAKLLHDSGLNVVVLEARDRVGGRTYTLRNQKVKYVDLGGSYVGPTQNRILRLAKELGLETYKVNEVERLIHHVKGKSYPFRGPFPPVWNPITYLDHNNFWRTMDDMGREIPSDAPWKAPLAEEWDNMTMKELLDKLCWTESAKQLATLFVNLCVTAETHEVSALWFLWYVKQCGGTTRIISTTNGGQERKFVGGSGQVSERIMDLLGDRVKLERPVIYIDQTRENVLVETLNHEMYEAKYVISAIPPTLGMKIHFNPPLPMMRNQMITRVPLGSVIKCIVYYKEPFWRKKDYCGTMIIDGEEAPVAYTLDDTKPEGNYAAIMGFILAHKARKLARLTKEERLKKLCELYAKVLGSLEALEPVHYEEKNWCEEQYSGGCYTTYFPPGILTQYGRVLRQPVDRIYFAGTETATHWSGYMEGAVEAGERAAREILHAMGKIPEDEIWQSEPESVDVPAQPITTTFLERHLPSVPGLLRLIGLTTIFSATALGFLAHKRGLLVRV

Legend:
SSAO = SSAO (Rattus norvegicus, UniProt O08590); experiment: In vitro inhibition of SSAO activity, radiolabeled benzylamine procedure (rat lung homogenate); conditions: Table I; for IC50: compounds of formula X
Experimental: SSAO activity was also measured as described (Lizcano J M. Et al. (1998) Biochem J. 331:69). Briefly, rat lung homogenates were prepared by chopping the freshly removed tissue into small pieces and washing them thoroughly in PBS. The tissue was then homogenized 1:10 (w/v) in 10 mM potassium phosphate buffer (pH 7.8) and centrifuged at 1000 g at 4° C. for 10 minutes; the supernatant was kept frozen until ready to use. SSAO activity in 100 ul of lung homogenate was determined radiochemically using 20 uM ^14C-benzylamine as substrate. The reaction was carried out at 37° C. in a final volume of 300 ul of 50 mM potassium phosphate buffer (pH 7.2) and stopped with 100 ul of 2 M citric acid. Radioactively labeled products were extracted into; toluene/ethyl acetate (1:1, v/v) containing 0.6% (w/v) 2,5-diphenyloxdazole (PPO) before liquid scintillation counting.

human MAO-A = human MAO-A (Homo sapiens, UniProt P21397); experiment: Inhibition of MAO-A activity, coupled colorimetric assay; conditions: read-out: MAO-A (IC50); recombinant human MAO-A, tyramine substrate
Experimental: (§1) The specificity of the different SSAO inhibitors was tested by determining their ability to inhibit MAO-A and MAO-B activities in vitro. Recombinant human MAO-A and human MAO-B enzymes were obtained from BD Biosciences (MA, USA). MAO activities were measured in a similar way as for SSAO except that no pre-incubation with inhibitor or substrate was performed. A pre-determined amount of inhibitor diluted in 0.2 M potassium phosphate buffer, pH 7.6, was added to each well, if required. The amount of inhibitor varied in each assay but was generally at a final concentration of between 50 nM and 1 mM. Controls lacked inhibitor. The following agents were then added to a final reaction volume of 200 μl in 0.2 M potassium phosphate buffer, pH 7.6: 0.04 mg/ml of MAO-A or 0.07 mg/ml MAO-B enzyme, 15 μl of 10 mM tyramine substrate (for MAO-A), or 15 μl 100 mM benzylamine substrate (for MAO-B), and 50 μl of freshly made chromogenic solution (as above). The plates were incubated for 60 min at 37° C. The increase in absorbance, reflecting MAO activity, was measured at 490 nm using microplate spectrophotometer (Power Wave 40, Bio-Tek Inst.). Inhibition was determined as percent inhibition compared to control after correcting for background absorbance and IC50 values, and was calculated using. GraphPad Prism software. Clorgyline and pargyline (inhibitors of MAO-A and -B, respectively) at 0.5 and 10 μM, respectively, were added to some wells as positive controls for MAO inhibition.

human MAO-B = human MAO-B (Homo sapiens, UniProt P27338); experiment: Inhibition of MAO-B activity, coupled colorimetric assay; conditions: read-out: MAO-B (IC50); recombinant human MAO-B, benzylamine substrate
Experimental: as §1

SMILES | IC50 (SSAO) [µM] | IC50 (human MAO-A) [µM] | IC50 (human MAO-B) [µM] | % inhibition (SSAO; at 7 μM) [%] | % inhibition (SSAO; at 9 μM) [%]
NCC(=O)NCc1cc(C(F)(F)F)ccc1F | 0.01 | > 1000 | > 1000 | – | –
NCC(=O)NCc1ccc(C(F)(F)F)c(F)c1 | 0.49 | – | – | 77 | –
NCC(=O)NCc1cccc(C(F)(F)F)c1F | 0.015 | > 1000 | > 1000 | – | –
O=C(CNc1ccc(F)cc1)NCc1ccc(F)cc1 | > 100 | – | – | – | –
Cc1ccc(CNC(=O)CN)cc1 | 0.1 | – | – | – | –
NCC(=O)NCc1ccc(F)c(C(F)(F)F)c1 | 0.18 | > 1200 | > 1200 | – | –
CCN(CC)CC(=O)NCCc1ccccc1 | > 100 | – | – | – | –
CN(C)CC(=O)NCc1ccc(F)cc1 | > 100 | – | – | – | –
NCC(=O)NCc1ccc(Cl)nc1 | 0.52 | – | – | – | 88
